These results are taken from patent US8093297B2 (Mutual Pharmaceutical Company, Inc., priority 2009, dated 2012).

This data set can be described thus: Pharmacokinetic study in healthy adults of single vs. multiple oral doses of colchicine tablets (Example 1).

With `COc1cc2c(c(OC)c1OC)-c1ccc(OC)c(=O)cc1[C@@H](NC(C)=O)CC2` [Colchicine, (−)-N-[(7S,12aS)-1,2,3,10-tetramethoxy-9-oxo-5,6,7,9-tetrahydrobenzo[a]heptalen-7-yl]-acetamide], the “mean Cmin concentration” value (Day 25) is reported as 0.907 ng/mL. Also, the “Cmin, MEAN” value (multiple (b.i.d. x 10 days) oral doses colchicine 0.6 mg, after last dose Day 25, healthy adults N=13) was 0.90651 ng/mL.
